Measured values: patent US6500927B2 (priority 1998, dated 2002)

Amino acid sequences for entries named in this document (tags omitted). Residues count along the entry.
UniProt P42866, 1-393 isoform P42866-9: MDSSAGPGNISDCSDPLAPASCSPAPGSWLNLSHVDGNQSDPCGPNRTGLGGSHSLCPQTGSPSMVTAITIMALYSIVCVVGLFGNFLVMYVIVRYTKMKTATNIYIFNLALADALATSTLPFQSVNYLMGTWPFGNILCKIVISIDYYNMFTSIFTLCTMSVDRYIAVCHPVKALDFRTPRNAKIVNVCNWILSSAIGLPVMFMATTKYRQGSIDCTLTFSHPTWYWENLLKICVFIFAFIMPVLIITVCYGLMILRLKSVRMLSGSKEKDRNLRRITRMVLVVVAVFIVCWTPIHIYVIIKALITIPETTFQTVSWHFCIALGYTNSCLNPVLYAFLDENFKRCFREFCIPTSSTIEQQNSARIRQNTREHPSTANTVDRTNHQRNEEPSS
UniProt P42866, 1-438 isoform P42866-8: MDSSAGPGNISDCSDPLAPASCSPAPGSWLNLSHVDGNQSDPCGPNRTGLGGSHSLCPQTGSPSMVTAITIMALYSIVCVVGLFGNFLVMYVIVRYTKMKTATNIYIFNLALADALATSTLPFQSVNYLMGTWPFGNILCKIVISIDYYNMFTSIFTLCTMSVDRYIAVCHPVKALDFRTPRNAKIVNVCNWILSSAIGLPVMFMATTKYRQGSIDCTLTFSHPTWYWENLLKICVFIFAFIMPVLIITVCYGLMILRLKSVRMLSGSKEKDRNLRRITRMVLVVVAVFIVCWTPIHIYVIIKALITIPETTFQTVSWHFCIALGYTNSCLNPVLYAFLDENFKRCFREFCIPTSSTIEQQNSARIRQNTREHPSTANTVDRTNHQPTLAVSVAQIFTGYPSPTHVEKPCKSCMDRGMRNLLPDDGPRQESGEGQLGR

Legend:
[1] = biological target: T1, MOR-1D (Mus musculus, UniProt P42866); type: binding; settings: MOR-1D vs MOR-1 or MOR-1E
T1 construct: The cDNA fragments containing the full length MOR-1 or the MOR-1 variants in pCRII-ToPo were subcloned into pcDNA3.1; expressed in transfected cells

[2] = biological target: MOR-1C (Mus musculus, UniProt P42866); settings: MOR-1C vs MOR-1 or MOR-1E

## dynorphin A
[1]
  Affinity for MOR-1D compared with MOR-1 or MOR-1E: significantly higher affinity
[2]
  Affinity for MOR-1C compared with MOR-1 or MOR-1E: significantly higher affinity
